Tested on: ophthalmic mucous membrane
Details: rabbit, in vivo
Method: The testing method of the present test was based on the guidelines given by OECD. That means, 3 rabbits were used in this study, and a test drug was administered once into one eye of a rabbit in the conjunctival sac, and the other eye was used as control. […] Eyes were washed using lukewarm water of about 35° C. at the observation 24 hours after the administration. Scores of the conjunctival reaction obtained by administration of each test drug were calculated according to the assessment criteria of Draize method. The maximum of total score at each observation time was obtained for each test drug and for each test animal, and the average was calculated, then irritation evaluation in 8 stages (FIG. 9) was carried out according to the Kay and Calandra ophthalmic mucous membrane irritation classification method.

styrene-divinylbenzene copolymer [styrene-divinylbenzene copolymer resin]
Kay and Calandra ophthalmic mucous membrane irritation classification (8 levels): Minimally irritating
average value (score) of the maximum Draize score: 2.7
